Test results as given in patent US5990096A, “Formulations containing hyaluronic acid” (priority 1992, dated 1999).
Where two headings read alike, the source gives them in different places.

Conditions: human, in vivo

Measured: Ibuprofen blood level

CC(C)Cc1ccc(C(C)C(=O)O)cc1 (stereo not drawn) [PROFLEX]
0.09: 0.25 h | 0.5 h | 6 h
